Experiments:
Type in all cases: cell-based
[1] = system: human extramedullary adipose tissue cells; assay: Examination of the cells under a scanning electron microscope
[2] = system: human extramedullary adipose tissue cells; assay: Alkaline phosphatase activity of treated cultures (para-nitrophenol phosphate substrate)
Description: Adipose tissue biopsies were taken during plastic surgery of the abdomen on healthy patients, of ages of from 25 to 50.
The tissues taken were sliced thinly into small fragments and digested for 90 minutes with collagenase (2 mg/ml) in a Krebs Ringer buffer at 37° C. Filtering was performed on a screen having a pore size of 100 μm, the filtrate was recovered, and centrifuged at 1000 revolutions per minute (rpm) for 5 min. The supernatant was removed and the pellet was washed several times in Krebs Ringer buffer. The washing and centrifuging steps were repeated several times and on each occasion the supernatant containing mature adipocytes was removed. The resulting cells were suspended in DME/F12 (Sigma Chemical Co., St. Louis, Mo. USA; reference D-6905) culture medium containing 10% fetal calf serum, 100 μg/ml streptomycin, and 100 U/ml penicillin. […]
Alkaline phosphatase activity was determined by using para-nitrophenol phosphatase as a substrate, using the technique described by L. Lecoeur and J. P. Ouhayoun, Biomaterials 18, 989-993 (1997). The quantity of para-nitrophenol formed upon hydrolysis of the substrate was determined by measuring the absorbance at 410 nm, which was converted into nanomoles of enzyme using a calibration curve established on the basis of known concentrations of para-nitrophenol.

[3] = system: human extramedullary adipose tissue cells; assay: In vitro mineralization of the extracellular matrix (von Kossa stain); settings: after 45 days
[4] = system: human extramedullary adipose tissue cells; assay: Type I collagen immunofluorescence on fixed cells; settings: 30 days of treatment
[5] = system: human extramedullary adipose tissue cells; assay: In situ cytoenzymatic (histochemical) detection of alkaline phosphatase on fixed cell cultures; settings: cultures fixed with formol after 30 days of treatment
[6] = system: human extramedullary adipose tissue cells; assay: Osteocalcine immunofluorescence on fixed cells

Substance: rhBMP2: recombinant human BMP2 supplied by Genetic Institute, added at 200 ng/ml
- appearance of cells under scanning electron microscope [1]: more elongate in shape
- alkaline phosphatase activity relative to control cultures ([2]; in most cases, even after 35 days of incubation): less than or equal to the activity present in the control cultures
- alkaline phosphatase activity (in words) ([2]; treatment added at confluence, media renewed every 3 days): did not present a strong alkaline phosphatase activity
- points of mineralization [3]: no points of mineralization would be detected
- reaction with anti-type I collagen antibody (fluorescence) [4]: reacted little with that antibody
- cells with positive alkaline phosphatase activity (cytoenzymatic test) [5]: only a small proportion of cells that were positive for alkaline phosphatase
- response to anti-osteocalcine antibody (fluorescent marking) [6]: responded very weakly

From patent US6426222B1, “Method for inducing osteoblast differentiation of human extramedullary adipose tissue cells” (Bio Holdings International Limited, priority 1997, dated 2002)
